{"source": "patent US8106218B2", "about": "“Pharmaceutical compounds” (Neuroscienze Pharmaness S.C. A R.L., priority 2004, dated 2012)", "molecular_target": "T1, cannabinoidergic CB2 receptors (Rattus norvegicus, UniProt Q9QZN9)", "T1 construct": "the brain in toto (cerebellum excluded) and the spleen were rapidly dissected and maintained in ice; from tissue; host or cells: rat spleen, membrane preparation", "T1 sequence (Q9QZN9 1-360)": "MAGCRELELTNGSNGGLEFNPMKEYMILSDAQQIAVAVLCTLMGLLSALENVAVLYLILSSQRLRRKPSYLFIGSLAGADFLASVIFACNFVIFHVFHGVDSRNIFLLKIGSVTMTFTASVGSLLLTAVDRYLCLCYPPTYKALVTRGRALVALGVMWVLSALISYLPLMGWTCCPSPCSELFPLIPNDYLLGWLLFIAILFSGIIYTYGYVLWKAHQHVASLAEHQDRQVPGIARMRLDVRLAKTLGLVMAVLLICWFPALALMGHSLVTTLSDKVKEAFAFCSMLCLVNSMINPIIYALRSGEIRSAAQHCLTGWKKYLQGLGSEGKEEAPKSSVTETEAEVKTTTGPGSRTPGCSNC", "test": "Radioreceptorial binding, [3H]-CP-55,940 competition, rat spleen membranes", "conditions": "1 nM [3H]-CP55,940", "description": "The affinity of the synthesized compounds towards the cannabinoidergic CB1 and CB2 receptors was evaluated in vitro through radioreceptorial binding studies by utilizing the following method.\nThe receptorial binding technique allows indeed to establish if and with what affinity and specificity a determined compound binds itself to a particular receptor. To evaluate the possible affinity of a determined compound towards a particular receptor it is necessary to make to compete (in a particular preparation of the tissue in which those determined receptors are present) the compound to be tested with another compound whose affinity is known and whose molecule was rendered radioactive. […] The reading of the radioactivity present in the receptor-compound complex allows furthermore to calculate with extreme precision the amount of compound bound to the receptor. […]\nThe obtained membranes (50-80 μg of proteins) were incubated in the presence of 1 nM di[^3H]-CP55,940 for 1 h at 30° C. in a final volume of 0.5 ml of TME buffer containing 5 mg/ml of bovine serum albumin (BSA). The non specific binding was measured in the presence of CP55,940 at the 1 μM concentration. […]\nThe radioactivity present in the filters was measured by a scintillator spectrophotometer (Tricarb 2100, Packard, Meridien, USA). […]"}
{"substance": "N-piperidino-5-(4-chlorophenyl)-1-(2,4-dichlorophenyl)-4-methylpyrazol-3-carboxyamide [SR141716A, reference compound]", "values": [{"measurement": "Ki", "value": "514 ± 30", "unit": "nM"}]}
